# Only a part is listed here, and it is no random draw. Some results for these compounds are left out of this collection, so the calls shown say nothing about other tests. Activity calls are given as the source filed them.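 The calls were made as follows: active = primary screen inhibition at 20 µM above a set limit (cut at about 50% in these data); inactive = the rest.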
# Tested on: diaphorase (Clostridium kluyveri)
# Assay: diaphorase inhibitors and chemical oxidizers, primary screen, counter-screen for diaphorase-coupled primary assays, biochemical, uHTS, resorufin fluorescence (AID 1217);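 also: plate controls were DMSO with full reaction for no effect and wells lacking NADH for full effect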
# Conditions: diaphorase resazurin-to-resorufin fluorescence, NADH, 16 min; at 20 µM; hits give high values; bacterial (C. kluyveri) enzyme, not human
# Summary of the method: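 Test system: Clostridium kluyveri diaphorase enzyme / Quantity: diaphorase at 0.14 U/mL in enzyme working solution / Incubation: 16-min room-temperature incubation before reading / Benchmarks: NADH-free wells as positive control, DMSO-only neutral wells / Signal: resorufin fluorescence 544/590 nm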
row,SMILES,inhibition
1,O=C(OC1CN2CCC1CC2)C(CO)(c1ccccc1)c1ccccc1 (centres undefined),inactive: 6.1%
2,CN(C)c1cccc(C(=O)NCC2(N(C)C)CCCCC2)c1,inactive: 19.1%
3,COc1cccc(C(=O)NCC2(N3CCCCC3)CCCCC2)c1,inactive: 9.5%
4,Cc1ccccc1C(=O)NCC1(N2CCCCC2)CCCCC1,inactive: 3.4%
5,CN(C)C1CCCC1OC(=O)C(O)(c1ccccc1)c1ccccc1 (centres undefined),inactive: -0.8%
6,CCN1CCCC(OC(=O)C2(O)c3ccccc3C=Cc3ccccc32)C1 (centres undefined),inactive: 4.3%
7,C=CCN1CCN(CCOC(=O)C(O)(c2ccccc2)c2ccccc2)CC1,inactive: 5.9%
8,O=C(NCC1(N2CCCCC2)CCCCC1)c1cc([N+](=O)[O-])ccc1Cl,inactive: -5.3%
9,CC(C)N1C(=O)CC2(CCN(CCOC(=O)C(O)(c3ccccc3)c3ccccc3)CC2)C1=O,inactive: 1.9%

# From PubChem BioAssay AID1217 (Sanford-Burnham Center for Chemical Genomics, 2008)
